What follows are compounds tested against Sodium-dependent serotonin transporter (Rattus norvegicus, UniProt P31652).

Protein sequences, listed by entry. Tags and fused reporters are not part of them.
UniProt P31652, whole entry: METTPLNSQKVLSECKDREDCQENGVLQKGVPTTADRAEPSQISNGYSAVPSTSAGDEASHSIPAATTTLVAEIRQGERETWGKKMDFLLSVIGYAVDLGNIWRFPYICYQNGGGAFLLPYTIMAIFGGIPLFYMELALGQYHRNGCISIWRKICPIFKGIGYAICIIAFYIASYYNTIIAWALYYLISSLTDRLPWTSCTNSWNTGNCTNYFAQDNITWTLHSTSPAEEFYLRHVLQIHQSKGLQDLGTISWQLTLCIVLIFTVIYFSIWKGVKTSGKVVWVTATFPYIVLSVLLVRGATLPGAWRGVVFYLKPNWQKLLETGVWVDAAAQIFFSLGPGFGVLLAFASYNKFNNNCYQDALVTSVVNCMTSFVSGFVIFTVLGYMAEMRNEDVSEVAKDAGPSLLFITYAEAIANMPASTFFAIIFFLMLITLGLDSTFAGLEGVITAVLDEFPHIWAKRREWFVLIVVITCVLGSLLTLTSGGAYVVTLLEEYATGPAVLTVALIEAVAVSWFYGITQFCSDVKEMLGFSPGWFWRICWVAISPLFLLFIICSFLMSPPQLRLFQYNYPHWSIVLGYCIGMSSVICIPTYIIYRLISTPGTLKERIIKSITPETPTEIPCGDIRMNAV

Structure (SMILES)	Ki [nM]
Cn1cc([C@H]2CC[C@H](N3CCN(c4cccc5[nH]ccc45)CC3)CC2)c2cc(C#N)ccc21	102
Fc1ccc2[nH]cc([C@H]3CC[C@H](N4CCN(c5cccc6cccnc56)CC4)CC3)c2c1	39.3
Fc1ccc2[nH]cc([C@H]3CC[C@@H](N4CCN(c5cccc6cccnc56)CC4)CC3)c2c1	4.6
CCn1cc([C@H]2CC[C@@H](N3CCN(c4cccc5[nH]ccc45)CC3)CC2)c2cc(C#N)ccc21	13.4
CCCn1cc([C@H]2CC[C@@H](N3CCN(c4cccc5[nH]ccc45)CC3)CC2)c2cc(C#N)ccc21	26.7
Cn1cc([C@H]2CC[C@@H](N3CCN(c4cccc5[nH]ccc45)CC3)CC2)c2cc(C#N)ccc21	3.3
CCn1cc([C@H]2CC[C@H](N3CCN(c4cccc5[nH]ccc45)CC3)CC2)c2cc(C#N)ccc21	58.2
CCCn1cc([C@H]2CC[C@H](N3CCN(c4cccc5[nH]ccc45)CC3)CC2)c2cc(C#N)ccc21	62.5
